According to patent US8748375B2 (Amylin Pharmaceuticals, LLC, priority 2009, dated 2014):

Legend:
amylin receptors = target: T1, amylin receptors (Rattus norvegicus, UniProt P32214+Q9JJ74); assay: Receptor Binding Assay
T1 construct: This basal forebrain tissue, containing the nucleus accumbens and surrounding regions, was weighed and homogenized; from tissue; host or cells: rat basal forebrain (nucleus accumbens and surrounding regions) membranes
T1 sequence (P32214 25-516): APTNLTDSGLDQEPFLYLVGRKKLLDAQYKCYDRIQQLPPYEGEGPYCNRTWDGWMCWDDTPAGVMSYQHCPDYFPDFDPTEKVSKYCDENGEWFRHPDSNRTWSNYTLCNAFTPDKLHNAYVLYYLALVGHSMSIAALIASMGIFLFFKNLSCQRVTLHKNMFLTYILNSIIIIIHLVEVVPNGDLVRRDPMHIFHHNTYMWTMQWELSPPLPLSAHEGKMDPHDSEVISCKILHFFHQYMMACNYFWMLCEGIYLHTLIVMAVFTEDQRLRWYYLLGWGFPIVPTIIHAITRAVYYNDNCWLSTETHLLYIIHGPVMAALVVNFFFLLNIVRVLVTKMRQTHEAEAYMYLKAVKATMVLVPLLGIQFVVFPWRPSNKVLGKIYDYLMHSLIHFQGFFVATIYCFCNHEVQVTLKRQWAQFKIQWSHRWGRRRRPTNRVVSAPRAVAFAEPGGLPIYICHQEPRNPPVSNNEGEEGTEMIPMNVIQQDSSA
T1 sequence (Q9JJ74 27-148): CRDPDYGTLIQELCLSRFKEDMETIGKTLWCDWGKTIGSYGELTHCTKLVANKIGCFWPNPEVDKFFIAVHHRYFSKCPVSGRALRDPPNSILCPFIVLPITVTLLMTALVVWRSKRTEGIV
Text: A preferred source of the membrane preparations used in the assay is the basal forebrain which comprises membranes from the nucleus accumbens and surrounding regions.
Unlabeled peptides were obtained from BACHEM Inc. (Torrance, Calif.) and Peninsula Laboratories (Belmont, Calif.).
Male Sprague-Dawley rats (200-250) grams were sacrificed by decapitation. Brains were removed to cold phosphate-buffered saline (PBS). From the ventral surface, cuts were made rostral to the hypothalamus, bounded laterally by the olfactory tracts and extending at a 45° angle medially from these tracts. This basal forebrain tissue, containing the nucleus accumbens and surrounding regions, was weighed and homogenized in ice-cold 20 mM HEPES buffer (20 mM HEPES acid, pH adjusted to 7.4 with NaOH at 23° C.). […] The final membrane pellet was resuspended in 20 mM HEPES buffer containing 0.2 mM phenylmethylsulfonyl fluoride (PMSF).
Solutions were incubated for 60 minutes at 23° C. […] Filters were washed immediately before filtration with 5 ml cold PBS, and immediately after filtration with 15 ml cold PBS.

[1] = test system: insulin-stimulated glycogen synthesis in soleus muscle; assay: Soleus Muscle Assay; assay type: cell-based, rat
Method: Concentrations of peptide dissolved in carrier-free buffers are determined by quantitative amino acid analysis, as described therein. The ability of compounds to act as agonists in this assay is determined by measuring EC50 values. […] Similar results were obtained with other agonist compounds listed above.

Row | SMILES | receptor binding activity (in words) (amylin receptors) | amylin agonist activity (in words) [1] | antagonist activity in soleus muscle assay (in words) [1] | EC50 ([1]; […] insulin)
1 | CC[C@H](C)[C@H](NC(=O)[C@@H]1CCCN1C(=O)CNC(=O)[C@H](Cc1ccccc1)NC(=O)[C@H](CC(N)=O)NC(=O)[C@H](CC(N)=O)NC(=O)[C@H](CO)NC(=O)[C@H](CO)NC(=O)[C@H](Cc1c[nH]cn1)NC(=O)[C@@H](NC(=O)[C@H](CC(C)C)NC(=O)[C@H](Cc1ccccc1)NC(=O)[C@H](CC(N)=O)NC(=O)[C@H](C)NC(=O)[C@H](CC(C)C)NC(=O)[C@H](CCCNC(=N)N)NC(=O)[C@H](CCC(N)=O)NC(=O)[C@@H](NC(=O)[C@H](C)NC(=O)[C@@H]1CSSC[C@H](N)C(=O)N[C@@H](CC(N)=O)C(=O)N[C@@H]([C@@H](C)O)C(=O)N[C@@H](C)C(=O)N[C@@H]([C@@H](C)O)C(=O)N1)[C@@H](C)O)C(C)C)C(=O)N[C@@H](CC(C)C)C(=O)N1CCC[C@H]1C(=O)N1CCC[C@H]1C(=O)N[C@H](C(=O)N[C@@H](CC(N)=O)C(=O)N[C@H](C(=O)NCC(=O)N[C@@H](CO)C(=O)N[C@@H](CC(N)=O)C(=O)N[C@H](C(=O)N[C@@H](Cc1ccc(O)cc1)C(N)=O)[C@@H](C)O)C(C)C)[C@@H](C)O [des-^1Lys^25, 28, 29Pro-h-Amylin] | compete with amylin | act as amylin agonists | negligible antagonist activity | 
2 | CC[C@H](C)[C@H](NC(=O)[C@H](C)NC(=O)CNC(=O)[C@H](Cc1ccccc1)NC(=O)[C@H](CC(N)=O)NC(=O)[C@H](CC(N)=O)NC(=O)[C@H](CO)NC(=O)[C@H](CO)NC(=O)[C@H](Cc1c[nH]cn1)NC(=O)[C@@H](NC(=O)[C@H](CC(C)C)NC(=O)[C@H](Cc1ccccc1)NC(=O)[C@H](CC(N)=O)NC(=O)[C@H](C)NC(=O)[C@H](CC(C)C)NC(=O)[C@H](CCCNC(=N)N)NC(=O)[C@H](CCC(N)=O)NC(=O)[C@@H](NC(=O)[C@H](C)NC(=O)[C@@H]1CSSC[C@H](N)C(=O)N[C@@H](CC(N)=O)C(=O)N[C@@H]([C@@H](C)O)C(=O)N[C@@H](C)C(=O)N[C@@H]([C@@H](C)O)C(=O)N1)[C@@H](C)O)C(C)C)C(=O)N[C@@H](CC(C)C)C(=O)N[C@@H](CO)C(=O)N[C@@H](CO)C(=O)N[C@H](C(=O)N[C@@H](CC(N)=O)C(=O)N[C@H](C(=O)NCC(=O)N[C@@H](CO)C(=O)N[C@@H](CC(N)=O)C(=O)N[C@H](C(=O)N[C@@H](Cc1ccc(O)cc1)C(N)=O)[C@@H](C)O)C(C)C)[C@@H](C)O [^2, 37h-Amylin] |  |  |  | 1.63 nM
3 | CC(C)C[C@H](NC(=O)[C@H](CCCNC(=N)N)NC(=O)[C@H](CCC(N)=O)NC(=O)[C@@H](NC(=O)[C@H](C)NC(=O)[C@@H]1CSSC[C@H](NC(=O)[C@@H](N)CCCCN)C(=O)N[C@@H](CC(N)=O)C(=O)N[C@@H]([C@@H](C)O)C(=O)N[C@@H](C)C(=O)N[C@@H]([C@@H](C)O)C(=O)N1)[C@@H](C)O)C(=O)N[C@@H](C)C(=O)N[C@@H](CC(N)=O)C(=O)N[C@@H](Cc1ccccc1)C(=O)N[C@@H](CC(C)C)C(=O)N[C@H](C(=O)N[C@@H](Cc1c[nH]cn1)C(=O)N[C@@H](CO)C(=O)N[C@@H](CO)C(=O)N[C@@H](CC(N)=O)C(=O)N[C@@H](CC(N)=O)C(=O)N[C@@H](Cc1ccccc1)C(=O)NCC(=O)N1CCC[C@H]1C(=O)N[C@H](C(=O)N[C@@H](CC(C)C)C(=O)N1CCC[C@H]1C(=O)N1CCC[C@H]1C(=O)N[C@H](C(=O)N[C@@H](CC(N)=O)C(=O)N[C@H](C(=O)NCC(=O)N[C@@H](CO)C(=O)N[C@@H](CC(N)=O)C(=O)N[C@H](C(=O)N[C@@H](Cc1ccc(O)cc1)C(N)=O)[C@@H](C)O)C(C)C)[C@@H](C)O)C(C)C)C(C)C [^25Pro^26Val^28, 29Pro-h-Amylin] | compete with amylin | act as amylin agonists | negligible antagonist activity | 
4 | CC[C@H](C)[C@H](NC(=O)[C@@H]1CCCN1C(=O)CNC(=O)[C@H](Cc1ccccc1)NC(=O)[C@H](CC(N)=O)NC(=O)[C@H](CC(N)=O)NC(=O)[C@H](CO)NC(=O)[C@H](CO)NC(=O)[C@H](Cc1c[nH]cn1)NC(=O)[C@@H](NC(=O)[C@H](CC(C)C)NC(=O)[C@H](Cc1ccccc1)NC(=O)[C@H](CC(N)=O)NC(=O)[C@H](C)NC(=O)[C@H](CC(C)C)NC(=O)[C@H](CCCNC(=N)N)NC(=O)[C@H](CCC(N)=O)NC(=O)[C@@H](NC(=O)[C@H](C)NC(=O)[C@@H]1CSSC[C@H](NC(=O)[C@@H](N)CCCCN)C(=O)N[C@@H](CC(N)=O)C(=O)N[C@@H]([C@@H](C)O)C(=O)N[C@@H](C)C(=O)N[C@@H]([C@@H](C)O)C(=O)N1)[C@@H](C)O)C(C)C)C(=O)N[C@@H](CC(C)C)C(=O)N1CCC[C@H]1C(=O)N1CCC[C@H]1C(=O)N[C@H](C(=O)N[C@@H](CC(N)=O)C(=O)N[C@H](C(=O)NCC(=O)N[C@@H](CO)C(=O)N[C@@H](CC(N)=O)C(=O)N[C@H](C(=O)N[C@@H](Cc1ccc(O)cc1)C(N)=O)[C@@H](C)O)C(C)C)[C@@H](C)O [^25, 28, 29Pro-h-Amylin] | compete with amylin |  |  | 

The next lines start with results.

Row | receptor binding activity (in words) (amylin receptors) | SMILES | amylin agonist activity (in words) [1] | antagonist activity in soleus muscle assay (in words) [1] | EC50 ([1]; […] insulin)
5 | compete with amylin | CC[C@H](C)[C@H](NC(=O)[C@@H]1CCCN1C(=O)CNC(=O)[C@H](Cc1ccccc1)NC(=O)[C@H](CC(N)=O)NC(=O)[C@H](CC(N)=O)NC(=O)[C@H](CO)NC(=O)[C@H](CO)NC(=O)[C@H](CCCNC(=N)N)NC(=O)[C@@H](NC(=O)[C@H](CC(C)C)NC(=O)[C@H](Cc1ccccc1)NC(=O)[C@H](CC(N)=O)NC(=O)[C@H](C)NC(=O)[C@H](CC(C)C)NC(=O)[C@H](CCCNC(=N)N)NC(=O)[C@H](CCC(N)=O)NC(=O)[C@@H](NC(=O)[C@H](C)NC(=O)[C@@H]1CSSC[C@H](NC(=O)[C@@H](N)CCCCN)C(=O)N[C@@H](CC(N)=O)C(=O)N[C@@H]([C@@H](C)O)C(=O)N[C@@H](C)C(=O)N[C@@H]([C@@H](C)O)C(=O)N1)[C@@H](C)O)C(C)C)C(=O)N[C@@H](CC(C)C)C(=O)N1CCC[C@H]1C(=O)N1CCC[C@H]1C(=O)N[C@H](C(=O)N[C@@H](CC(N)=O)C(=O)N[C@H](C(=O)NCC(=O)N[C@@H](CO)C(=O)N[C@@H](CC(N)=O)C(=O)N[C@H](C(=O)N[C@@H](Cc1ccc(O)cc1)C(N)=O)[C@@H](C)O)C(C)C)[C@@H](C)O [^18Arg^25, 28, 29Pro-h-Amylin] | act as amylin agonists | negligible antagonist activity | 
6 | compete with amylin | CC[C@H](C)[C@H](NC(=O)[C@@H]1CCCN1C(=O)CNC(=O)[C@H](Cc1ccccc1)NC(=O)[C@H](CC(N)=O)NC(=O)[C@H](CC(N)=O)NC(=O)[C@H](CO)NC(=O)[C@H](CO)NC(=O)[C@H](CCCNC(=N)N)NC(=O)[C@@H](NC(=O)[C@H](CC(C)C)NC(=O)[C@H](Cc1ccccc1)NC(=O)[C@H](CC(N)=O)NC(=O)[C@H](C)NC(=O)[C@H](CC(C)C)NC(=O)[C@H](CCCNC(=N)N)NC(=O)[C@H](CCC(N)=O)NC(=O)[C@@H](NC(=O)[C@H](C)NC(=O)[C@@H]1CSSC[C@H](N)C(=O)N[C@@H](CC(N)=O)C(=O)N[C@@H]([C@@H](C)O)C(=O)N[C@@H](C)C(=O)N[C@@H]([C@@H](C)O)C(=O)N1)[C@@H](C)O)C(C)C)C(=O)N[C@@H](CC(C)C)C(=O)N1CCC[C@H]1C(=O)N1CCC[C@H]1C(=O)N[C@H](C(=O)N[C@@H](CC(N)=O)C(=O)N[C@H](C(=O)NCC(=O)N[C@@H](CO)C(=O)N[C@@H](CC(N)=O)C(=O)N[C@H](C(=O)N[C@@H](Cc1ccc(O)cc1)C(N)=O)[C@@H](C)O)C(C)C)[C@@H](C)O [des-^1Lys^18Arg^25, 28, 29Pro-h-Amylin] | act as amylin agonists | negligible antagonist activity | 
